target: JAK2 (Homo sapiens (Human), UniProt O60674); test: Enzyme assay (Assay Example^a 1), JAK2; type: biochemical; details: ATP 100 μM; Table^a 154; read-out: IC50 (μM) JAK2

Chains of the proteins cited; added tags and fusions are not shown. Lines headed by an entry give the natural chain unless they say otherwise; changes in a name come on top.
UniProt P52333: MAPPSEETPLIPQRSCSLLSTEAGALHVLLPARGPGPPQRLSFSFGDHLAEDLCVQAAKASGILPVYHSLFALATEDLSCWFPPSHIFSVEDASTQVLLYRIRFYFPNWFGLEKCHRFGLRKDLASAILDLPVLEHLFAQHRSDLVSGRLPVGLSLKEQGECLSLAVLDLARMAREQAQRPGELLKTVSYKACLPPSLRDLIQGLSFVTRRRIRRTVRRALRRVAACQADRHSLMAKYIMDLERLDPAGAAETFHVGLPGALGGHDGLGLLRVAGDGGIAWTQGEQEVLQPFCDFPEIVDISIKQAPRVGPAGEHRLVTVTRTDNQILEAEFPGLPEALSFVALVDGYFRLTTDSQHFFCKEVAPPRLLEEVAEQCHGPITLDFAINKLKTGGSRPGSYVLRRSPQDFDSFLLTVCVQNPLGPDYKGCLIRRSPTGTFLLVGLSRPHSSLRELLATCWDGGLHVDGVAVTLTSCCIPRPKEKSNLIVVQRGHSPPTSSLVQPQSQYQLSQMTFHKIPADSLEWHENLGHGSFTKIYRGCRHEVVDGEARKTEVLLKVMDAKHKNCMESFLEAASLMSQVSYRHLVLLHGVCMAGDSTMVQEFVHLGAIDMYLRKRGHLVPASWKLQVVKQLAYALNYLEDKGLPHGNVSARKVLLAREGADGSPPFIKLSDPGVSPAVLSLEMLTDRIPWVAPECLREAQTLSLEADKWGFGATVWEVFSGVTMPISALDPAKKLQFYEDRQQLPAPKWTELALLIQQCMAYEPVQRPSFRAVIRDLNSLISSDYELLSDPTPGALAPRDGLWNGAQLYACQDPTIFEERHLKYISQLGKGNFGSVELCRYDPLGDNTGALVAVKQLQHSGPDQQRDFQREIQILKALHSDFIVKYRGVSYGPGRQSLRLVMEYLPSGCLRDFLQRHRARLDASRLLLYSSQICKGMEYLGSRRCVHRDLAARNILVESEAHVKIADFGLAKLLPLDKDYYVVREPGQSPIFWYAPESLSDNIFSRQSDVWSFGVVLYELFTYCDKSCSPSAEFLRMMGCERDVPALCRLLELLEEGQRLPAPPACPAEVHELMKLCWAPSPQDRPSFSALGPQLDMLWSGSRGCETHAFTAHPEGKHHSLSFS

SMILES | IC50 [µM]
c1ccc(CCN[C@H]2CC[C@@H](c3nnn4cnc5[nH]ccc5c34)CC2)cc1 [135a] | 0.94

same assay, conditions: ATP 100 μM; read-out: IC50 (μM) JAK2

SMILES | IC50 [µM]
O=C(OCc1ccccc1)N1CCCC(c2ncn3cnc4[nH]ccc4c23)C1 (racemic) [compound 3] | 0.13

target: T1, JAK3 (Homo sapiens (Human), UniProt P52333); test: Enzyme assay (Assay Example^a 1), JAK3; type: biochemical; details: not given

SMILES | IC50 [µM]
N#CCC(=O)N1CCCC(c2ncn3cnc4[nH]ccc4c23)C1 (racemic) [compound 4] | 0.29
N#Cc1ccc(CN2CCCC(c3nnn4cnc5[nH]ccc5c34)C2)cc1 (racemic) [compound 22] | > 1

same assay, conditions: ATP 100 μM; Table^a 154; read-out: IC50 (μM) JAK3

SMILES | IC50 [µM]
O[C@H](CN[C@H]1CC[C@H](c2nnn3cnc4[nH]ccc4c23)CC1)c1ccccc1 [203b, (S)-2-{[trans-4-(7H-pyrrolo[3,2-e][1,2,3]triazolo[1,5-c]pyrimidin-1-yl)cyclohexyl]amino}-1-phenylethanol] | 1
O[C@@H](CN[C@H]1CC[C@H](c2nnn3cnc4[nH]ccc4c23)CC1)c1ccccc1 [204b, (R)-2-{[trans-4-(7H-pyrrolo[3,2-e][1,2,3]triazolo[1,5-c]pyrimidin-1-yl)cyclohexyl]amino)-1-phenylethanol] | > 1
N#Cc1cc(F)c(CN2CCC(c3nnn4cnc5[nH]ccc5c34)CC2)c(F)c1 [compound 53] | 0.024

same assay, conditions: ATP 100 μM; read-out: IC50 (μM) JAK3

SMILES | IC50 [µM]
O[C@@H](CNC[C@H]1CC[C@H](c2nnn3cnc4[nH]ccc4c23)CC1)c1ccccc1 [compound 276, (R)-2-({[trans-4-(7H-pyrrolo[3,2-e][1,2,3]triazolo[1,5-c]pyrimidin-1-yl)cyclohexyl]methyl}amino)-1-phenylethanol] | 0.063
O[C@H](CNC[C@H]1CC[C@H](c2nnn3cnc4[nH]ccc4c23)CC1)c1ccccc1 [compound 277, (S)-2-({[trans-4-(7H-pyrrolo[3,2-e][1,2,3]triazolo[1,5-c]pyrimidin-1-yl)cyclohexyl]methyl}amino)-1-phenylethanol] | 0.27

same assay, conditions: read-out: IC50 (μM) JAK3

SMILES | IC50 [µM]
O=C(OCc1ccccc1)N1CCC(c2nnn3cnc4[nH]ccc4c23)CC1 [compound 26] | > 1
O=C(CC(F)(F)F)N1CCC(c2nnn3cnc4[nH]ccc4c23)CC1 [compound 29] | > 1
N#Cc1ccc(CN2CCC(c3nnn4cnc5[nH]ccc5c34)CC2)cc1 [compound 34] | 0.031
Cc1noc(C)c1CN1CCC(c2nnn3cnc4[nH]ccc4c23)CC1 [compound 36] | > 1
FC(F)(F)Sc1ccc(CN2CCC(c3nnn4cnc5[nH]ccc5c34)CC2)cc1 [compound 38] | 0.22
c1ccc(CCCN2CCC(c3nnn4cnc5[nH]ccc5c34)CC2)cc1 [compound 45] | > 1
COc1ccc(CN2CCC(c3nnn4cnc5[nH]ccc5c34)CC2)cc1F [compound 46] | > 1
FC(F)(F)c1cc(CN2CCC(c3nnn4cnc5[nH]ccc5c34)CC2)cc(C(F)(F)F)c1 [compound 47] | > 1
Clc1ccc(CN2CCC(c3nnn4cnc5[nH]ccc5c34)CC2)s1 [compound 49] | 0.041
c1cc2c(ncn3nnc(C4CCN(CC5CCCCC5)CC4)c23)[nH]1 [compound 50] | > 1
c1cc2c(ncn3nnc(C4CCN(C5CCCC5)CC4)c23)[nH]1 [compound 51] | > 1
O=C(Nc1cccc(C(F)(F)F)c1)N1CCC(c2nnn3cnc4[nH]ccc4c23)CC1 [compound 57] | > 1
O=C(c1ccc(C(F)(F)F)cc1)N1CCC(c2nnn3cnc4[nH]ccc4c23)CC1 [compound 58] | > 1
c1cc2c(ncn3nnc(C4CCCCCC4)c23)[nH]1 [compound 66] | 0.086
FC(F)(F)[C@H]1CC[C@H](c2nnn3cnc4[nH]ccc4c23)CC1 [compound 69] | > 1
FC[C@H]1CC[C@H](c2nnn3cnc4[nH]ccc4c23)CC1 [compound 73] | 0.065
SC[C@H]1CC[C@H](c2nnn3cnc4[nH]ccc4c23)CC1 [compound 76] | 0.03
O=C[C@H]1CC[C@H](c2nnn3cnc4[nH]ccc4c23)CC1 [compound 78] | 0.17
O=S1(=O)CCN(C[C@H]2CC[C@H](c3nnn4cnc5[nH]ccc5c34)CC2)CC1 [compound 88] | 0.21
N#CCCNC[C@H]1CC[C@H](c2nnn3cnc4[nH]ccc4c23)CC1 [compound 90] | 0.2
F[C@H]1CCN(C[C@H]2CC[C@H](c3nnn4cnc5[nH]ccc5c34)CC2)C1 [compound 94] | 0.83
F[C@@H]1CCN(C[C@H]2CC[C@H](c3nnn4cnc5[nH]ccc5c34)CC2)C1 [compound 95] | > 1
FC1(F)CCN(C[C@H]2CC[C@H](c3nnn4cnc5[nH]ccc5c34)CC2)CC1 [compound 97] | 0.97

SMILES | IC50 [µM]
FC(F)(F)c1ccc(CNC[C@H]2CC[C@H](c3nnn4cnc5[nH]ccc5c34)CC2)cc1 [compound 98] | 0.3
FC(F)(F)c1ccc(NC[C@H]2CC[C@H](c3nnn4cnc5[nH]ccc5c34)CC2)cc1 [compound 99] | > 1
Fc1ccc(NC[C@H]2CC[C@H](c3nnn4cnc5[nH]ccc5c34)CC2)cc1 [compound 100] | 0.24
Fc1ccc(CNC[C@H]2CC[C@H](c3nnn4cnc5[nH]ccc5c34)CC2)cc1 [compound 101] | 0.22
CS(=O)(=O)c1ccc(CNC[C@H]2CC[C@H](c3nnn4cnc5[nH]ccc5c34)CC2)cc1 [compound 113] | 0.71
FC(F)(F)Oc1ccc(NC[C@H]2CC[C@H](c3nnn4cnc5[nH]ccc5c34)CC2)cc1 [compound 114] | > 1
FC(F)(F)Oc1ccc(NC[C@H]2CC[C@H](c3nnn4cnc5[nH]ccc5c34)CC2)c(Cl)c1 [compound 115] | > 1
c1cc2c(ncn3nnc([C@H]4CC[C@H](CNc5ccc(N6CCOCC6)cc5)CC4)c23)[nH]1 [compound 118] | > 1
O[C@H]1CCN(C[C@H]2CC[C@H](c3nnn4cnc5[nH]ccc5c34)CC2)C1 [compound 119] | 0.59
c1cc2c(ncn3nnc([C@H]4CC[C@H](CNC[C@@H]5CCCO5)CC4)c23)[nH]1 [compound 120] | > 1
c1cc(CCNC2CCC(c3nnn4cnc5[nH]ccc5c34)CC2)ccn1 (stereo not drawn) [compound 122] | > 1
FC(F)(F)c1cccc(CCNC2CCC(c3nnn4cnc5[nH]ccc5c34)CC2)c1 (stereo not drawn) [compound 125] | > 1
N#CC1CCN(C2CCC(c3nnn4cnc5[nH]ccc5c34)CC2)CC1 (stereo not drawn) [compound 127] | > 1
CN(c1ccc(F)cc1)C1CCC(c2nnn3cnc4[nH]ccc4c23)CC1 (stereo not drawn) [compound 130] | > 1
Fc1ccc(NC2CCC(c3nnn4cnc5[nH]ccc5c34)CC2)cc1 (stereo not drawn) [compound 131] | 0.56
Cc1cc(C#N)ccc1NC1CCC(c2nnn3cnc4[nH]ccc4c23)CC1 (stereo not drawn) [compound 132] | > 1
OC[C@H]1CC[C@H](c2nnn3cnc4[nH]ccc4c23)CC1 [compound 141] | 0.24
FC(F)(F)c1ccc(CN2CCC(c3nnn4cnc5[nH]ccc5c34)CC2)o1 [compound 143] | 0.18
N#Cc1ccc(CN2CCC(c3nnn4cnc5[nH]ccc5c34)CC2)s1 [compound 144] | 0.054
Fc1ccc(CN2CCC(c3nnn4cnc5[nH]ccc5c34)CC2)cn1 [compound 145] | 0.026
Ic1ccc(CN2CCC(c3nnn4cnc5[nH]ccc5c34)CC2)o1 [compound 147] | 0.18
c1csc(CN2CCC(c3nnn4cnc5[nH]ccc5c34)CC2)c1 [compound 148] | 0.2
Brc1ccc(CN2CCC(c3nnn4cnc5[nH]ccc5c34)CC2)o1 [compound 149] | 0.06

target: T1, JAK3; test: JAK3 enzyme assay (Assay Example^b 1); details: IC50 (μM) JAK3, ATP 100 μM

SMILES | IC50 [µM]
O=c1[nH]c(=O)n(C2CCN(CC3CCCO3)CC2)c2c1cnc1[nH]ccc12 (racemic) [compound 99] | > 1
CC1(C)CC1NC[C@H]1CC[C@H](n2c(=O)[nH]c(=O)c3cnc4[nH]ccc4c32)CC1 (mixture of isomers) [compound 125] | > 1
O=c1[nH]c(=O)n([C@H]2CC[C@H](CNCC3CCCO3)CC2)c2c1cnc1[nH]ccc12 (mixture of isomers) [compound 130] | > 1
O=c1[nH]c(=O)n([C@H]2CC[C@H](CNCC(O)(c3cccnc3)C(F)(F)F)CC2)c2c1cnc1[nH]ccc12 (mixture of isomers) [compound 132] | > 1
O=c1[nH]c(=O)n(C2CCN(CCCCCC(F)(F)F)CC2)c2c1cnc1[nH]ccc12 [compound 97] | > 1
O=c1[nH]c(=O)n(C2CCC(CN3CCC(F)(F)CC3)CC2)c2c1cnc1[nH]ccc12 (stereo not drawn) [compound 115] | > 1
N#C[C@@H]1CCN(CC2CCC(n3c(=O)[nH]c(=O)c4cnc5[nH]ccc5c43)CC2)C1 (stereo partly drawn) [compound 118] | > 1
CN(CCO)CC1CCC(n2c(=O)[nH]c(=O)c3cnc4[nH]ccc4c32)CC1 (stereo not drawn) [compound 120] | > 1
O=c1[nH]c(=O)n(C2CCC(CNC3(C(F)(F)F)CC3)CC2)c2c1cnc1[nH]ccc12 (stereo not drawn) [compound 122] | > 1
N#CCNC[C@H]1CC[C@H](n2c(=O)[nH]c(=O)c3cnc4[nH]ccc4c32)CC1 [compound 127] | > 1

same assay, conditions: IC50 (μM) JAK3, Table^b 78; ATP 100 μM

SMILES | IC50 [µM]
C[C@@H]1CCN(Cc2ccccc2)C[C@@H]1n1ccc(=O)c2cnc3[nH]ccc3c21 (racemic) [compound 4] | 0.065

same assay, conditions: IC50 (μM) JAK3, Table^b 80; ATP 100 μM

SMILES | IC50 [µM]
C[C@@H]1CCN(C(=O)C2CCCC2)C[C@@H]1n1ccc(=O)c2cnc3[nH]ccc3c21 (racemic) [compound 38] | 0.031
N#Cc1ccc(CN2CCC(n3c(=O)[nH]c(=O)c4cnc5[nH]ccc5c43)CC2)cc1 [compound 50] | > 1
O=c1[nH]c(=O)n(C2CCN(Cc3ccc(Cl)s3)CC2)c2c1cnc1[nH]ccc12 [compound 51] | > 1
N#Cc1ccc(CN2CCC(n3ccc(=O)c4cnc5[nH]ccc5c43)CC2)cc1 [compound 57] | > 1
N#Cc1ccc(CN2CCC(n3ccc(=O)c4cnc5[nH]ccc5c43)CC2)c(F)c1 [compound 58] | > 1
O=c1ccn(C2CCC(CO)CC2)c2c1cnc1[nH]ccc12 (stereo not drawn) [compound 69] | > 1
